Assay outcomes as filed in PubChem BioAssay.
The list is not random: actives were taken first. Their share in the collection is about 13%.
Lamin A splicing = changes lamin A minigene splicing in HeLa cells; HeLa LMNA splicing GFP/RFP minigene ratio, 48 h; Potency, µM (top dose mostly 46.1 µM), for the others: top-dose ratio change, negative = inhibition, most hits filed as inhibitors; hit rate 0.01% among 200,000; AID 1487; active means well fitted inhibition curve with a large enough effect in the signal ratio, with a control signal flat, not every such curve was filed as active; inconclusive means small, poorly fitted or top-dose-only effect, or effect the other way, or a change in a side signal; the % refers to the signal ratio; further: potency means the concentration at half of the fitted maximal effect; on the % scale 0 is the no-effect control and ±100 the full control effect
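S3 HeLa cells stably expressing lamin A-EGFP splicing minigene plus DsRed2, 600 cells/well, 48 h compound exposure at 37C. Laser-scanning cytometry; analysed as GFP (500-530 nm)/RFP (575-640 nm) total intensity ratio; 0.5% DMSO vehicle.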
G9a inh = G9a (human) methyltransferase inhibition. Potency, µM (doses to about 102 µM), inactives show at the highest dose activity, negative = inhibition, actives largely listed as inhibitors. hit rate 8.8% among 350,000. G9a H3K9 monomethylation, AlphaScreen, 2 h. AID 504332. Q96KQ7; further: potency means the concentration at half of the fitted maximal effect; on the % scale 0 is the no-effect control and ±100 the full control effect; nearly all actives have a fitted effect of over 75% in size
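Step 1: enzyme (final 20 nM) with compound, 15 min RT. Step 2: substrate peptide 500 nM and SAM 20 uM, 2 h RT. Step 3: anti-H3K9me1 antibody and AlphaScreen beads, 10 min, then plate read.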
Sfp inh = qHTS Assay for Inhibitors of Bacillus subtilis Sfp phosphopantetheinyl transferase (PPTase); actives 3.5% (n = 310,000); AID 1490, 2009; Biochemical Sfp PPTase activity, qHTS; Potency, µM, for inactives: max response, negative = inhibition, usual class: inhibitors; 4'-phosphopantetheinyl transferase ffp (Bacillus subtilis), Q9F4F7; active means well fitted inhibition curve with a large enough effect; inconclusive means small, poorly fitted or top-dose-only effect, or another doubt; inactive means no such curve, though single readings can be large or run the other way;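 further: the enzyme is Sfp with the accession as filed and its product quenches rhodamine fluorescence; potency means the concentration at half of the fitted maximal effect; 0% = enzyme reaction without inhibitor and -100% = no enzyme wells; top concentration of the series not given in the record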
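After 15 min at room temperature with compound, 15 nM Sfp received 5 uM rhodamine-CoA plus 12.5 uM BHQ-2-ybbR (50 mM Hepes pH 7.6, 10 mM MgCl2). Rate came from the fluorescence difference over 30 min, ex 525/em 598 nm.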
JMJD2E inh = JMJD2E (human) inhibition | B2RXH2 | JMJD2E catalytic domain, FDH-coupled NADH fluorescence (FDH is formaldehyde dehydrogenase) | Potency, µM (series often up to 57.1 µM), for inactives: top-dose activity change, negative = inhibition, hits mostly inhibitors | hit rate 1.6% among 230,000; active means well fitted inhibition curve with a large enough effect, not every such curve was filed as active; inconclusive means small, poorly fitted or top-dose-only effect, or another doubt; inactive means no such curve, though single readings can be large or run the other way;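 further: potency means the concentration at half of the fitted maximal effect; 0% = wells with enzyme and -100% = buffer wells without enzyme; nearly all actives have a fitted effect of over 50% in size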
miR-21 reporter = raises the signal of a miR-21 reporter | HeLa miR-21 FLuc reporter, luciferase, 48 h | Potency, µM (highest dose often 38.3 µM), for inactives: at the highest dose reporter change, positive = more light | 340,000 tested, under 10 active | AID 2288; active = well fitted rising curve with a large enough effect; inconclusive = small, poorly fitted or top-dose-only effect; inactive = no such curve, though single readings can be large or run the other way;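 also: % of control where 0% means no effect; miR-21 action dims this reporter so a rising signal means less miR-21 action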
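HeLa miR-21-FLuc reporter line, endogenous miR-21; 2000 cells/well in DMEM/10% FBS; compound titration up to ~40uM final, 48 h, 37 degree Celsius; luciferase detection reagent, 15 min lysis, CCD luminescence.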
ALDH1A1 inh = ALDH1A1 (human) enzyme inhibition; Purified ALDH1A1, NADH fluorescence, propionaldehyde substrate; hit rate 7.3% among 220,000; Potency, µM (titrated, usually from 75.3 µM), for inactives: top-dose activity, negative = inhibition, actives largely listed as inhibitors; active means well fitted inhibition curve with a large enough effect, not every such curve was filed as active; inconclusive means small, poorly fitted or top-dose-only effect, or another doubt; inactive means no such curve, though single readings can be large or run the other way;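 further: potency means the concentration at half of the fitted maximal effect; plate controls were no enzyme wells and a reference inhibitor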
Numbers without * were called inactive; u = inconclusive; x = not tested or not shown; [ ] = another dose, or the depositor's remark. Unless noted, the call rests on the fitted dose curve; in most records, active means well fitted curve in the direction sought with a large enough effect; inconclusive means small, poorly fitted or top-dose-only effect, or another doubt; inactive means no such curve, though single readings can be large; an effect the other way counts as inactive or inconclusive.

Lamin A splicing	G9a inh	Sfp inh	JMJD2E inh	miR-21 reporter	ALDH1A1 inh	Molecule
u	-1.6%[59 µM]	10.4%	2.7%	-8.9%	0.9%	O=C(c1ccc(Br)o1)N1CCN(C/C=C/c2ccccc2)CC1
x	7.94µM*	x	x	x	x	CC(=O)c1ccc(S(=O)(=O)NCC(=O)N2CCN(C/C=C/c3ccccc3)CC2)cc1
u	-48.0%[2.33 µM]	u	3.6%	-0.4%	17.8µM*	O=C(c1ccc(Br)s1)N1CCN(C/C=C/c2ccccc2)CC1
x	0.1%[59 µM]	x	x	22.8%	x	Cc1ccc(NC(=O)NCCOCCn2c(=O)oc3ccccc32)cc1F
x	-50.3%[12.7 µM]	20.2%	x	x	x	CC(C)OC(=O)Nc1ccc2nc(-c3cscn3)[nH]c2c1
-6.6%	2.2%[59 µM]	6.9%	6.0%	4.1%	12.6µM*	COC(=O)c1ccc(CNC(=O)COC(=O)CC23CC4CC(CC(Br)(C4)C2)C3)cc1
-8.7%[46 µM]	-27.6%	-13.8%	4.6%	0.9%	7.2%	COc1ccc(CNC(=O)COC(=O)c2ccc(Br)cc2)cc1
-13.2%[46 µM]	50.1µM*	7.0%	-1.9%	7.0%	u	COC(=O)c1ccc(CNC(=O)COC(=O)c2cc(Cl)nc(Cl)c2)cc1
20.2%[46 µM]	7.8%[59 µM]	x	x	16.5%	x	Cc1ccc(Cl)cc1N1C(=O)N(Cc2ccc(C#N)cc2)c2ccccc2S1(=O)=O
7.6%	u	5.7%	10.2%	-54.6%	7.94µM*	CCC(=O)Nc1ccc2c(c1)C(=O)c1ccccc1C2=O
x	4.1%[12.7 µM]	x	x	x	x	Cc1ccc(NC(=O)c2ccc(=O)[nH]n2)cc1S(=O)(=O)Nc1ccccc1Cl
u	-2.9%[59 µM]	15.3%	-2.9%	u	12.6µM*	Cc1ccc(NC(=S)NC(=O)c2ccc(F)cc2)cc1S(=O)(=O)Nc1ccccc1Cl
12.3%	u	-27.3%	8.9%	-60.1%	11.2µM*	O=C(NC(=S)Nc1ccc2c(c1)C(=O)c1ccccc1C2=O)c1ccc(F)cc1
-0.4%	-16.2%	11.1%	u	2.2%	u	CCC(=O)Nc1ccc2c(c1)C(=O)N(C)C2=O
x	8.91µM*	15.8µM*	x	-46.6%	x	O=C(NC(=S)Nc1ncccn1)c1ccc(F)cc1
x	x	4.9%	x	-0.7%	x	Cc1nccn1CCCNC(=O)CC1C(=O)NCCN1Cc1ccc(F)cc1Cl (stereo unspecified)
x	56.2µM*	-2.2%	4.7%	0.4%	-0.9%	CC(C)NC(=S)Nc1c(N)[nH]c(=O)[nH]c1=O
x	-8.3%[59 µM]	x	x	-1.5%	x	O=C(NCCSCc1ccc(Cl)cc1)C1CCN(S(=O)(=O)Cc2ccccc2)CC1
x	-1.5%	7.9%	x	-16.0%	x	COc1ccc(-c2cc(C(=O)Nc3c(F)cc(F)cc3Br)no2)cc1
x	u	11.5%	-18.7%	-23.5%	-4.3%	CC(=O)NCCN1C(=O)S/C(=C\c2cccs2)C1=O
u	70.8µM*	u	3.2%	u	20µM*	N#CCc1ccc(NC(=O)/C=C/c2ccc([N+](=O)[O-])o2)cc1
x	u	-3.7%	u	u	u	O=C(Cc1ccc([N+](=O)[O-])cc1)N/N=C/c1ccc([N+](=O)[O-])o1
0.0%	u	35.5µM*	u	0.2%	u	O=S(=O)(/N=C(\Sc1ccccc1)c1ccccc1)c1ccc(Cl)cc1
x	16.7%[59 µM]	2.5%	x	1.1%	x	Cc1ccc(S(=O)(=O)/N=C(/Nc2cccc(C(=O)O)c2)c2ccccc2)cc1
x	x	79.4µM*	x	-5.2%	x	Cc1ccc(S(=O)(=O)/N=C(/Sc2ccccc2C(=O)O)c2ccccc2)cc1
7.9%	0.1%[12.7 µM]	-20.5%	-21.7%	0.0%	u	Cc1ccc(S(=O)(=O)/N=C(\Sc2ccccc2)c2ccccc2)cc1
x	x	-5.1%	5.2%	-42.6%	-14.6%	O=C(CCc1nnc(CCCc2ccccc2)o1)NCCCC1CCCC1
x	8.91µM*	-13.8%	x	-20.0%	x	O=C(CN1CCOCC1)Nc1ccc(Cl)c(Cl)c1
-1.8%	31.6µM*	2.1%	-19.8%	-7.0%	22.4µM*	O=C(CN1CCOCCOCCN(CC(=O)Nc2ccccc2)CCOCC1)Nc1ccccc1
3.6%	-12.2%[59 µM]	-7.1%	-1.9%	-42.2%	25.1µM*	O=C(CN1CCOCC1)Nc1ccc(C2CCCCC2)cc1

As a short view, 4 of the compounds above:
Lamin A splicing	G9a inh	Sfp inh	JMJD2E inh	miR-21 reporter	ALDH1A1 inh	Molecule
x	16.7%[59 µM]	2.5%	x	1.1%	x	Cc1ccc(S(=O)(=O)/N=C(/Nc2cccc(C(=O)O)c2)c2ccccc2)cc1
x	x	79.4µM*	x	-5.2%	x	Cc1ccc(S(=O)(=O)/N=C(/Sc2ccccc2C(=O)O)c2ccccc2)cc1
7.9%	0.1%[12.7 µM]	-20.5%	-21.7%	0.0%	u	Cc1ccc(S(=O)(=O)/N=C(\Sc2ccccc2)c2ccccc2)cc1
x	x	-5.1%	5.2%	-42.6%	-14.6%	O=C(CCc1nnc(CCCc2ccccc2)o1)NCCCC1CCCC1
